# Test results: patent US9126980B2, “Compounds for inhibiting the interaction of BCL2 with binding partners” (Novartis AG, priority 2011, dated 2015)
# The chains behind the UniProt entries cited, without tags or fusion partners.
# UniProt P10415, whole entry: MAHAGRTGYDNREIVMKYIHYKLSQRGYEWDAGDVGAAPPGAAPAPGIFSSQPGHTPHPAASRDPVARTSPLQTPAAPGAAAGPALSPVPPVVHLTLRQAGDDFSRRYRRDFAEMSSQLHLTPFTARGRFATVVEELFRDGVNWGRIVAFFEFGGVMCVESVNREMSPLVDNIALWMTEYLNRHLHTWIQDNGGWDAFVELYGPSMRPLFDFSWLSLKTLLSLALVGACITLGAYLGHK
# How the values were obtained:
# [1] = biological target: BCL-2 binding to biotinylated BAK peptide (Homo sapiens (Human), UniProt P10415); assay: SPR (Biacore) solution inhibition assay, BCL-2 binding to BAK peptide surface; details: read-out: BCL2_SPR IC50 BAK; high and low IC50 values from multiple experiments; 56 nM BCL-2, BAK peptide sensor surface, 25° C.
# [2] = biological target: BCL-2 binding to biotinylated BAD peptide (Homo sapiens (Human), UniProt P10415); assay: SPR (Biacore) solution inhibition assay, BCL-2 binding to BAD peptide surface; details: read-out: BCL2_SPR IC50 BAD; high and low IC50 values from multiple experiments; 56 nM BCL-2, BAD peptide sensor surface, 25° C.
IC50 [1] [nM],IC50 [2] [nM],SMILES
310 to 311,–,CCCCN(CCCC)C(=O)c1cc(C)n(-c2ccc(NS(=O)(=O)c3ccccc3C(=O)OC)cc2C(=O)N2Cc3ccccc3C[C@H]2CO)n1
636 to 646,–,CCCCN(CCCC)C(=O)c1cc(C)n(-c2ccc(NS(=O)(=O)c3ccc(-c4noc(C)n4)cc3)cc2C(=O)N2Cc3ccccc3C[C@H]2CO)n1
–,272 to 320,CCCCN(CCCC)C(=O)c1cc(C)n(-c2ccc(NS(=O)(=O)CCN3C(=O)c4ccccc4C3=O)cc2C(=O)N2Cc3ccccc3C[C@H]2CO)n1
788 to 881,–,CCCCN(CCCC)C(=O)c1cc(C)n(-c2ccc(NS(=O)(=O)c3sc4ccc(F)cc4c3C)cc2C(=O)N2Cc3ccccc3C[C@H]2CO)n1
> 16000,> 16000,CCCCN(CCCC)C(=O)c1cc(C)n(-c2ccc(NS(=O)(=O)c3ccc(Oc4ccc(C)cc4)cc3)cc2C(=O)N2Cc3ccccc3C[C@H]2CO)n1
–,631 to 633,CCCCN(CCCC)C(=O)c1cc(C)n(-c2ccc(NS(=O)(=O)c3scc(C(=O)OC)c3OC)cc2C(=O)N2Cc3ccccc3C[C@H]2CO)n1
–,863 to 906,CCCCN(CCCC)C(=O)c1cc(C)n(-c2ccc(NS(=O)(=O)c3ccc(-c4cnco4)cc3)cc2C(=O)N2Cc3ccccc3C[C@H]2CO)n1
479 to 582,–,CCCCN(CCCC)C(=O)c1cc(C)n(-c2ccc(NS(=O)(=O)c3cc([N+](=O)[O-])ccc3C)cc2C(=O)N2Cc3ccccc3C[C@H]2CO)n1
304 to 326,–,CCCCN(CCCC)C(=O)c1cc(C)n(-c2ccc(NS(=O)(=O)c3ccccc3F)cc2C(=O)N2Cc3ccccc3C[C@H]2CO)n1
–,542 to 627,CCCCN(CCCC)C(=O)c1cc(C)n(-c2ccc(NS(=O)(=O)c3ccc(C(=O)OC)o3)cc2C(=O)N2Cc3ccccc3C[C@H]2CO)n1
–,6820 to 7740,CCCCN(CCCC)C(=O)c1cc(C)n(-c2ccc(NS(=O)(=O)c3ccc(-c4cc(Cl)cc(Cl)c4)cc3)cc2C(=O)N2Cc3ccccc3C[C@H]2CO)n1
–,593 to 670,CCCCN(CCCC)C(=O)c1cc(C)n(-c2ccc(NS(=O)(=O)c3ccc4c(c3)OCCO4)cc2C(=O)N2Cc3ccccc3C[C@H]2CO)n1
–,493 to 494,CCCCN(CCCC)C(=O)c1cc(C)n(-c2ccc(NS(=O)(=O)c3cccc(Cl)c3Cl)cc2C(=O)N2Cc3ccccc3C[C@H]2CO)n1
661 to 690,791 to 808,CCCCN(CCCC)C(=O)c1cc(C)n(-c2ccc(NS(=O)(=O)c3cc(S(=O)(=O)c4ccccc4)cs3)cc2C(=O)N2Cc3ccccc3C[C@H]2CO)n1
286 to 299,475 to 485,CCCCN(CCCC)C(=O)c1cc(C)n(-c2ccc(NS(=O)(=O)c3ccsc3C(=O)OC)cc2C(=O)N2Cc3ccccc3C[C@H]2CO)n1
509 to 549,–,CCCCN(CCCC)C(=O)c1cc(C)n(-c2ccc(NS(=O)(=O)CCc3cccc4ccccc34)cc2C(=O)N2Cc3ccccc3C[C@H]2CO)n1
–,636 to 644,CCCCN(CCCC)C(=O)c1cc(C)n(-c2ccc(NS(=O)(=O)c3cn(C)cn3)cc2C(=O)N2Cc3ccccc3C[C@H]2CO)n1
441 to 492,622 to 682,CCCCN(CCCC)C(=O)c1cc(C)n(-c2ccc(NS(=O)(=O)c3c(C)nn(C)c3C)cc2C(=O)N2Cc3ccccc3C[C@H]2CO)n1
3250 to 3820,4800 to 6030,CCCCN(CCCC)C(=O)c1cc(C)n(-c2ccc(NS(=O)(=O)c3ccc(Oc4ccc(F)cc4)cc3)cc2C(=O)N2Cc3ccccc3C[C@H]2CO)n1
727 to 787,–,CCCCN(CCCC)C(=O)c1cc(C)n(-c2ccc(NS(=O)(=O)c3ccc(-c4ccn(C)n4)cc3)cc2C(=O)N2Cc3ccccc3C[C@H]2CO)n1
3510 to 3610,–,CCCCN(CCCC)C(=O)c1cc(C)n(-c2ccc(NS(=O)(=O)c3cccc(-c4ccn(C)n4)c3)cc2C(=O)N2Cc3ccccc3C[C@H]2CO)n1
–,251 to 293,CCCCN(CCCC)C(=O)c1cc(C)n(-c2ccc(NS(=O)(=O)c3cccc4nonc34)cc2C(=O)N2Cc3ccccc3C[C@H]2CO)n1

SMILES,IC50 [1] [nM],IC50 [2] [nM]
CCCCN(CCCC)C(=O)c1cc(C)n(-c2ccc(NS(=O)(=O)c3ccccc3[N+](=O)[O-])cc2C(=O)N2Cc3ccccc3C[C@H]2CO)n1,222 to 288,264 to 277
